{
  "sequences": {"note": "By UniProt entry, the sequences of proteins in these tests, tags left out.", "UniProt Q9NR96, whole entry": "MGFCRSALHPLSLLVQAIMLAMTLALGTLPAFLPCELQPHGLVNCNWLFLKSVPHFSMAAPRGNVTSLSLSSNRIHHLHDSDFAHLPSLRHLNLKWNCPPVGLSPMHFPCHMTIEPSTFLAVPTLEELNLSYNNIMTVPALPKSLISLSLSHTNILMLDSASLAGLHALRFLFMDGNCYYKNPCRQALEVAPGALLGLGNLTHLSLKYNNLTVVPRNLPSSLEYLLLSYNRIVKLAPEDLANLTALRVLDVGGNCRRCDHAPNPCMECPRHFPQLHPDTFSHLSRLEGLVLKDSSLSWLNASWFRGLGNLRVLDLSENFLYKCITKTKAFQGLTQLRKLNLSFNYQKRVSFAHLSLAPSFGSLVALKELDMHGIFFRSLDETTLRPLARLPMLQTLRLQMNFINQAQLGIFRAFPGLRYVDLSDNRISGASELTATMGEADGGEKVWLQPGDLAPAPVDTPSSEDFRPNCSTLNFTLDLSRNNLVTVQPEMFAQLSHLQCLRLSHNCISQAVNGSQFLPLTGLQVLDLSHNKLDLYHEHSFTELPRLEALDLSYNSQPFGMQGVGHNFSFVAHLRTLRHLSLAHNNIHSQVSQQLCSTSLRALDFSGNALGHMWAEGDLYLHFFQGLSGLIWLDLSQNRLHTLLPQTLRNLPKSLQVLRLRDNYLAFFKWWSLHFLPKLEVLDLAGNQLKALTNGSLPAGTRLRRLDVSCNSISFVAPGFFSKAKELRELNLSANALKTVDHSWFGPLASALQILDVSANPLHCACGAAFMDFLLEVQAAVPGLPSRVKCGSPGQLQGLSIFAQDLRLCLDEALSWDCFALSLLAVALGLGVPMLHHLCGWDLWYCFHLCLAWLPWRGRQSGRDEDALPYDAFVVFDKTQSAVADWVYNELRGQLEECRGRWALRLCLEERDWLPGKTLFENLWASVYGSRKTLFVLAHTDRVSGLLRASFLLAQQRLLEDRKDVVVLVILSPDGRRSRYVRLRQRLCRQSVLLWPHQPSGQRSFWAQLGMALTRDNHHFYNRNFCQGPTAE"},
  "source": "PubChem BioAssay AID504734",
  "about": "(The Scripps Research Institute Molecular Screening Center, 2011)",
  "note": "The entries are a selection whose mix differs from that of the whole data set. The source made the active and inactive calls.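 Rule for the calls: active = inhibition above the mean over all tested compounds plus 3 SD (cut at about 21% in these data); inactive = the rest.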",
  "data": [
    {"target": "Toll-like receptor 9 (Homo sapiens) + Myeloid differentiation primary response protein MyD88 (Homo sapiens) (UniProt Q9NR96+Q99836)", "assay": "disruptors of TLR9 binding to MyD88 – cell-based, CHO, BLA complementation, fluorescence, primary screen (AID 504734);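 note: 0% = DMSO only wells and 100% = clavulanate BLA inhibitor control wells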", "details": "CHO BLA complementation TLR9-MyD88, CCF4 FRET ratio; at 4.98 µM; active compounds read high", "values": [
      {"smiles": "COc1ccc(C(=O)NCC2(N3CCCCC3)CCCCC2)cc1", "inhibition": "inactive: 3.03%"},
      {"smiles": "COc1ccc(C(=O)NCC2(N3CCCCC3)CCCCC2)c(OC)c1OC", "inhibition": "inactive: -3.84%"},
      {"smiles": "CC(C)(C)OC(=O)N1CCC(N(C(=O)c2ccccc2)c2ccc(F)cc2)CC1", "inhibition": "inactive: -12%"},
      {"smiles": "O=C(NCC1(N2CCCCC2)CCCCC1)c1ccc(=O)[nH]c1", "inhibition": "inactive: -0.71%"},
      {"smiles": "O=C(NCC1(N2CCCCC2)CCCCC1)c1cccs1", "inhibition": "inactive: 0.86%"},
      {"smiles": "CSc1ccccc1C(=O)NCC1(N2CCCCC2)CCCCC1", "inhibition": "inactive: -4.07%"},
      {"smiles": "Cc1cccc(NC2(C#N)CCN(Cc3ccccc3)CC2)c1", "inhibition": "inactive: -3.9%"},
      {"smiles": "O=C(NCC1(N2CCCCC2)CCCCC1)c1ccc(Cl)nc1", "inhibition": "inactive: 0.87%"},
      {"smiles": "Cc1cc(C)cc(N(C(=O)c2ccccc2)C2CCN(C(=O)OC(C)(C)C)CC2)c1", "inhibition": "inactive: -3.38%"},
      {"smiles": "O=C(NCC1(N2CCOCC2)CCCCC1)c1cc2ccccc2o1", "inhibition": "inactive: 7.94%"},
      {"smiles": "O=C(OC1CN2CCC1CC2)C1c2ccccc2Oc2ccccc21", "note": "(stereo not given)", "inhibition": "inactive: -3.21%"},
      {"smiles": "O=C(NCC1(N2CCCCC2)CCCCC1)c1ccc(Cl)s1", "inhibition": "inactive: 5.1%"},
      {"smiles": "N#CC1(Nc2ccccc2)CCN(Cc2ccccc2)CC1", "inhibition": "inactive: -1.12%"},
      {"smiles": "COc1ccc(Cl)cc1C(=O)NCC1(N2CCOCC2)CCCCC1", "inhibition": "inactive: -10.6%"},
      {"smiles": "CCOC(=O)N1CCC(Nc2ccc(OC)cc2)CC1", "inhibition": "inactive: 5.27%"},
      {"smiles": "O=C1CCN(Cc2ccccc2)CC1", "inhibition": "inactive: -5.93%"},
      {"smiles": "CCOc1ccc(C)cc1CN(CCCl)CCCl", "inhibition": "inactive: -15.5%"},
      {"smiles": "O=C(NCC1(N2CCCCC2)CCCCC1)c1ccc(F)cc1", "inhibition": "inactive: 3.43%"},
      {"smiles": "CCCCOc1ccc(C(=O)NCC2(N3CCOCC3)CCCCC2)cc1", "inhibition": "inactive: 0.16%"},
      {"smiles": "O=P1(N(CCCl)CCCl)SCCCS1", "inhibition": "inactive: 0.05%"},
      {"smiles": "CCOC(=O)N1CCC(Nc2ccc(F)cc2)CC1", "inhibition": "inactive: 5.8%"},
      {"smiles": "COc1ccc(NC2CCN(CCc3ccccc3)CC2)c(OC)c1", "inhibition": "inactive: -4.8%"},
      {"smiles": "COc1cc(C(=O)NCC2(N(C)C)CCCCC2)ccc1OC(F)F", "inhibition": "inactive: 0.27%"},
      {"smiles": "CCOC(=O)N1CCC(Nc2cccc(C)c2)CC1", "inhibition": "inactive: -7.55%"},
      {"smiles": "O=C(NCC1(N2CCCCC2)CCCCC1)c1ccc(OC(F)F)cc1", "inhibition": "inactive: 7.02%"},
      {"smiles": "CCN1CCC(Nc2ccc(Cl)cc2)CC1", "inhibition": "inactive: -11.5%"},
      {"smiles": "N#CC1(Nc2ccccc2)CCN(CCc2ccccc2)CC1", "inhibition": "inactive: 7.14%"},
      {"smiles": "O=C(NCC1(N2CCCCC2)CCCCC1)c1cccc([N+](=O)[O-])c1", "inhibition": "inactive: 0.68%"},
      {"smiles": "CSc1ccc(C(=O)NCC2(N3CCOCC3)CCCCC2)cc1", "inhibition": "inactive: 2.94%"},
      {"smiles": "O=C(NCC1(N2CCCCC2)CCCCC1)c1cccc(C(F)(F)F)c1", "inhibition": "inactive: 3.95%"},
      {"smiles": "O=C(NCC1(N2CCOCC2)CCCCC1)c1cc(=O)[nH]c2ccccc12", "inhibition": "inactive: -6.62%"},
      {"smiles": "COc1cc(C(=O)NCC2(N3CCCCC3)CCCCC2)ccc1OC(F)F", "inhibition": "inactive: 2.08%"},
      {"smiles": "COc1ccc(NC2CCN(C(=O)OC(C)(C)C)CC2)cc1", "inhibition": "inactive: -15.9%"},
      {"smiles": "CC(C)c1ccc(C(=O)NCC2(N3CCOCC3)CCCCC2)cc1", "inhibition": "inactive: 3.81%"},
      {"smiles": "CN1CCN(CCOC(=O)C(O)(c2ccccc2)c2ccccc2)CC1", "inhibition": "inactive: -10.5%"},
      {"smiles": "CC(C)c1ccc(NC2CCN(C(=O)OC(C)(C)C)CC2)cc1", "inhibition": "inactive: -5.87%"},
      {"smiles": "COc1ccc(CN(CCCl)CCCl)cc1Cl", "inhibition": "inactive: 0.61%"},
      {"smiles": "CN(C)c1cccc(C(=O)NCC2(N3CCCCC3)CCCCC2)c1", "inhibition": "inactive: -2.04%"},
      {"smiles": "COc1cc(OC)c(C(=O)NCC2(N(C)C)CCCCC2)cc1OC", "inhibition": "inactive: 0.38%"},
      {"smiles": "O=C(NCC1(N2CCOCC2)CCCCC1)c1cc(F)c(F)cc1Cl", "inhibition": "inactive: -7.02%"},
      {"smiles": "O=C(NCC1(N2CCCCC2)CCCCC1)c1cncc(Br)c1", "inhibition": "inactive: 1%"},
      {"smiles": "CN1CCC(Nc2cccc(F)c2)CC1", "inhibition": "inactive: -3.16%"},
      {"smiles": "Cc1ccc(C(=O)NCC2(N(C)C)CCCCC2)o1", "inhibition": "inactive: -1.17%"},
      {"smiles": "CCCOc1ccc(C(=O)NCC2(N(C)C)CCCCC2)cc1OC", "inhibition": "inactive: 4.98%"},
      {"smiles": "COc1cc(C(=O)NCC2(N3CCOCC3)CCCCC2)cc(OC)c1C", "inhibition": "inactive: -16.1%"},
      {"smiles": "O=C(NCC1(N2CCOCC2)CCCCC1)c1cc(Br)ccc1Cl", "inhibition": "inactive: -19.8%"},
      {"smiles": "COc1ccc(C(=O)NCC2(N3CCOCC3)CCCCC2)cc1OC", "inhibition": "inactive: -2.16%"},
      {"smiles": "CCOC(=O)N1CCC(Nc2ccc(C)cc2)CC1", "inhibition": "inactive: 5.1%"},
      {"smiles": "N/C(=N\\O)c1c(N)no[n+]1[O-]", "inhibition": "inactive: -9.07%"},
      {"smiles": "O=C(OC1CN2CCC1CC2)C1c2ccccc2C=Cc2ccccc21", "note": "(stereo not given)", "inhibition": "inactive: -1.69%"},
      {"smiles": "N#Cc1ccc(C(=O)NCC2(N3CCCCC3)CCCCC2)cc1", "inhibition": "inactive: 1.9%"},
      {"smiles": "CC(C)(C)OC(=O)N1CCC(N(C(=O)c2ccccc2)c2ccc(Cl)cc2)CC1", "inhibition": "inactive: -1.92%"},
      {"smiles": "CN(C)C1(CNC(=O)c2cccc(C#N)c2)CCCCC1", "inhibition": "inactive: 6.13%"},
      {"smiles": "c1ccc(CN2CCC(Nc3ccccc3)CC2)cc1", "inhibition": "inactive: -0.21%"},
      {"smiles": "CCCN1CCC(Nc2cc(OC)cc(OC)c2)CC1", "inhibition": "inactive: 1.86%"},
      {"smiles": "Cc1cc(N(CCCl)CCCl)ccc1C=O", "inhibition": "inactive: -8.21%"},
      {"smiles": "CC(=O)N(c1ccccc1)C1CCNCC1", "inhibition": "inactive: 5.38%"},
      {"smiles": "COc1cc(OC)cc(C(=O)NCC2(N3CCCCC3)CCCCC2)c1", "inhibition": "inactive: 1.94%"},
      {"smiles": "Cc1ccc(C(=O)NCC2(N3CCCCC3)CCCCC2)o1", "inhibition": "inactive: -1.62%"},
      {"smiles": "Fc1ccccc1NC1CCN(Cc2ccccc2)CC1", "inhibition": "inactive: 3.52%"},
      {"smiles": "Cc1ccc(NC2(C#N)CCN(Cc3ccccc3)CC2)cc1", "inhibition": "inactive: 12.8%"},
      {"smiles": "Cc1ccccc1NC1(C#N)CCN(Cc2ccccc2)CC1", "inhibition": "inactive: -4.17%"},
      {"smiles": "CCN1CCC(Nc2cccc(F)c2)CC1", "inhibition": "inactive: -1.01%"},
      {"smiles": "O=C(NCC1(N2CCCCC2)CCCCC1)c1ccco1", "inhibition": "inactive: 7.97%"},
      {"smiles": "Cn1c(=O)[nH]cc(N(CCCl)CCCl)c1=O", "inhibition": "inactive: 1.07%"},
      {"smiles": "CN(C)c1ccc(C(=O)NCC2(N3CCCCC3)CCCCC2)cc1", "inhibition": "inactive: 1.04%"},
      {"smiles": "CCOc1ncccc1C(=O)NCC1(N2CCOCC2)CCCCC1", "inhibition": "inactive: -9.44%"},
      {"smiles": "CN1CCC(Nc2ccc(F)c(Cl)c2)CC1", "inhibition": "inactive: -3.48%"},
      {"smiles": "CC(C)(C)OC(=O)N1CCC(Nc2ccccc2)CC1", "inhibition": "inactive: 6.77%"},
      {"smiles": "O=C(O)C1(Nc2ccccc2)CCN(Cc2ccccc2)CC1", "inhibition": "inactive: -9.59%"},
      {"smiles": "CCCOc1ccc(C(=O)NCC2(N(C)C)CCCCC2)cc1", "inhibition": "inactive: 8.09%"},
      {"smiles": "COc1cccc(C(=O)N(c2cc(C)cc(C)c2)C2CCN(C(=O)OC(C)(C)C)CC2)c1", "inhibition": "inactive: -6.26%"},
      {"smiles": "COc1cc(OC)cc(C(=O)NCC2(N3CCOCC3)CCCCC2)c1", "inhibition": "inactive: 4.57%"},
      {"smiles": "CCC(CO)(C(=O)OC1CN2CCC1CC2)c1ccccc1", "note": "(stereo not given)", "inhibition": "inactive: 5.31%"},
      {"smiles": "CN1CCC(Nc2ccc(Cl)cc2)CC1", "inhibition": "inactive: 6.01%"}
    ]}
  ]
}
